ERp5 inh = blocks human ERp5 reductase activity on insulin; Q15084; ERp5 insulin aggregation, absorbance 650 nm, 90 min; inhibition, % at 9.99 µM; 350,000 compounds, 0.05% hits;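 active = mean replicate inhibition above about 25%, with every replicate also reaching it, limit read from the data, passing the limit was not always enough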
FGF22 binding = shifts melting point of recombinant human FGF22 | recombinant FGF22 thermal shift, SYPRO orange fluorescence; percent of sucrose octasulfate shift, DMSO zero | activity (Tm shift, normalised), % at 9.99 µM | Q9HCT0 | 340,000 compounds, 1.5% hits;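 active = mean Tm shift, scaled 0 neutral to 100 positive control, at about 1.3% or above, every replicate too, limit read from the data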
ARNT-TACC3 inh = ARNT/TACC3 interaction disruption; AlphaScreen His-ARNT PAS-B/GST-TACC3 binding, luminescence; TACC3 fragment carries E629A point mutation; Q9Y6A5; inhibition, % at 9.99 µM; 390,000 compounds, 0.66% hits;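 active = mean inhibition of replicates at least 50% and at least half of replicates each reaching 50%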;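 note: 0% = complete ARNT plus TACC3 wells and 100% = ARNT alone without TACC3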
PDI inh = blocks human protein disulfide isomerase activity. inhibition, % at 10 µM. AID 588391. P07237. 350,000 compounds, 0.052% hits. PDI insulin aggregation turbidity, A650, 90 min;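 active = mean inhibition across replicates of 30% or more, whatever share of single replicates reach that level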
Yeast UUG start-1 = yeast start codon fidelity modulation; AID 602363; activity score, % at 18.7 µM; S. cerevisiae UUG-firefly luciferase reporter, luminescence/redox ratio; 0.13% of 350,000 active;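 active means replicate mean at a twofold rise or more, about +100% in these data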;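 further: firefly luciferase made from a UUG start codon reports start codon fidelity; reporter light over untreated wells divided by growth signal over untreated wells; some hits fall short of that in this replicate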
PglD DTNB = inhibitors of Campylobacter jejuni PglD acetyltransferase | purified PglD enzyme, DTNB colorimetric CoA detection | inhibition, % at 12.5 µM | 360,000 compounds, 0.098% hits | AID 602405; in the data active = inhibition above about 16%, passing the limit was not always enough
Yeast UUG start-2 = yeast start codon fidelity modulation. shares compounds with Yeast UUG start-1. 540 tested, under 10 active. AID 652061. activation, % at 38 µM. S. cerevisiae UUG-start firefly luciferase, luminescence, 4 h; 100% means double the DMSO signal;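 active = signal increase whose fitted curve reaches an absolute level of 40 at a concentration under 10 µM; inactive = activity opposite to the expected increase, or the rest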
An asterisk follows results filed as active; i = inactive; / = no result. This is a sample that favours compounds with a hit; in the whole collection about 1.9% have one here.

SMILES	ERp5 inh	FGF22 binding	ARNT-TACC3 inh	PDI inh	Yeast UUG start-1	PglD DTNB	Yeast UUG start-2
C/C=C/c1ccc2c(c1)O[C@@H](CN(C)CCC)[C@@H](C)CN([C@@H](C)CO)S2(=O)=O	5	0	-4	/	-16	4	/
CNC[C@H]1Oc2cc(C#Cc3ccc(F)cc3)ccc2S(=O)(=O)N([C@H](C)CO)C[C@@H]1C	/	0	17	/	0	2	/
C[C@H](CO)N1C[C@H](C)[C@H](CN(C)Cc2ccccn2)Oc2cc(-c3cncnc3)ccc2S1(=O)=O	11	0	-1	/	124*	-1	i
C/C=C/c1ccc2c(c1)O[C@H](CN(C)CCC)[C@H](C)CN([C@H](C)CO)S2(=O)=O	1	0	-6	/	75*	2	i
C[C@H]1CN([C@@H](C)CO)S(=O)(=O)c2ccc(-c3cncnc3)cc2O[C@@H]1CN(C)Cc1ccccn1	2	0	-3	/	1	-4	/
C[C@H](CO)N1C[C@H](C)[C@H](CN(C)C(=O)C2CCCCC2)Oc2cc(-c3cncnc3)ccc2S1(=O)=O	0	0	-4	/	16	3	/
C[C@H]1CN([C@@H](C)CO)S(=O)(=O)c2ccc(-c3cncnc3)cc2O[C@@H]1CN(C)C(=O)C1CCCCC1	1	0	-12	/	254*	-2	i
CNC[C@H]1Oc2cc(C#Cc3ccccc3F)ccc2S(=O)(=O)N([C@H](C)CO)C[C@@H]1C	-2	0	-6	/	137*	3	i
C[C@H](CO)N1C[C@H](C)[C@@H](CN(C)Cc2ccc(C(F)(F)F)cc2)Oc2ccc(N(C)C)cc2CC1=O	-2	-1	15	/	-6	0	/
Cc1ccc(-c2ccc3c(c2)O[C@H](CN(C)C(=O)Nc2ccccc2)[C@H](C)CN([C@H](C)CO)S3(=O)=O)cc1	1	1	4	/	122*	0	i

Entries from the list above that have a halogen, in the order listed:
SMILES	ERp5 inh	FGF22 binding	ARNT-TACC3 inh	PDI inh	Yeast UUG start-1	PglD DTNB	Yeast UUG start-2
CNC[C@H]1Oc2cc(C#Cc3ccc(F)cc3)ccc2S(=O)(=O)N([C@H](C)CO)C[C@@H]1C	/	0	17	/	0	2	/
CNC[C@H]1Oc2cc(C#Cc3ccccc3F)ccc2S(=O)(=O)N([C@H](C)CO)C[C@@H]1C	-2	0	-6	/	137*	3	i
C[C@H](CO)N1C[C@H](C)[C@@H](CN(C)Cc2ccc(C(F)(F)F)cc2)Oc2ccc(N(C)C)cc2CC1=O	-2	-1	15	/	-6	0	/

Going on with the list:
SMILES	ERp5 inh	FGF22 binding	ARNT-TACC3 inh	PDI inh	Yeast UUG start-1	PglD DTNB	Yeast UUG start-2
CCCC#Cc1ccc2c(c1)O[C@@H](CN(C)C(=O)CN(C)C)[C@H](C)CN([C@H](C)CO)S2(=O)=O	-1	0	1	/	150*	-2	i
CCCC#Cc1ccc2c(c1)O[C@H](CN(C)Cc1cncnc1)[C@@H](C)CN([C@@H](C)CO)S2(=O)=O	-1	0	-3	/	80*	-3	i
CCCC#Cc1ccc2c(c1)O[C@@H](CN(C)C(=O)CN(C)C)[C@H](C)CN([C@@H](C)CO)S2(=O)=O	-4	0	32	/	3	-3	/
Cc1ccc(-c2ccc3c(c2)O[C@@H](CN(C)Cc2cncnc2)[C@@H](C)CN([C@H](C)CO)S3(=O)=O)cc1	-2	0	/	/	135*	1	i
CCCC#Cc1ccc2c(c1)O[C@@H](CN(C)C)[C@@H](C)CN([C@H](C)CO)S2(=O)=O	-5	0	-9	/	128*	-2	i
C[C@@H]1CN([C@@H](C)CO)S(=O)(=O)c2ccc(C#Cc3ccncc3)cc2O[C@H]1CN(C)S(=O)(=O)c1ccccc1	10	0	6	/	-2	5	/
CC(C)C#Cc1ccc2c(c1)O[C@@H](CN(C)C(=O)CC1CC1)[C@H](C)CN([C@H](C)CO)S2(=O)=O	-4	0	3	/	70*	-1	i
C[C@H]1CN([C@@H](C)CO)S(=O)(=O)c2ccc(C#Cc3ccncc3)cc2O[C@@H]1CN(C)S(=O)(=O)c1ccccc1	18	0	10	/	126*	3	i
COc1ccccc1NC(=O)N(C)C[C@H]1Oc2cc(Br)ccc2S(=O)(=O)N([C@@H](C)CO)C[C@@H]1C	-3	0	6	/	162*	3	i
COCC#Cc1cnc2c(c1)C(=O)N([C@H](C)CO)C[C@@H](C)[C@@H](CN(C)Cc1ccc3c(c1)OCO3)O2	10	0	-4	/	27	2	/

2 compounds picked at random from those above, as already listed:
SMILES	ERp5 inh	FGF22 binding	ARNT-TACC3 inh	PDI inh	Yeast UUG start-1	PglD DTNB	Yeast UUG start-2
CCCC#Cc1ccc2c(c1)O[C@@H](CN(C)C(=O)CN(C)C)[C@H](C)CN([C@@H](C)CO)S2(=O)=O	-4	0	32	/	3	-3	/
C[C@H]1CN([C@@H](C)CO)S(=O)(=O)c2ccc(C#Cc3ccncc3)cc2O[C@@H]1CN(C)S(=O)(=O)c1ccccc1	18	0	10	/	126*	3	i

(list continues)
SMILES	ERp5 inh	FGF22 binding	ARNT-TACC3 inh	PDI inh	Yeast UUG start-1	PglD DTNB	Yeast UUG start-2
COc1cc2c(C#N)c(N3CCc4ccccc4C3)nc(N)c2c(N)n1	/	/	-6	-5	502*	2	-4
C[C@H]1CN([C@@H](C)CO)C(=O)c2cc(C#Cc3ccccc3F)cnc2O[C@@H]1CN(C)S(=O)(=O)c1ccccc1F	0	0	-5	/	-9	-3	/
C=CCN1C(=O)C2C(C(=O)NCc3ccccc3)C3C=CC2(O3)C1C(=O)NC(C)(C)C (centres undefined)	/	/	9	7	533*	0	-6
Cn1c(=O)[nH]c(=O)c2c1nc(Br)n2C/C=N/NC(=O)c1ccccc1	0	0	1	-1	136*	-1	0
CC(C)(C)c1ccc(C(=O)Nc2ccc(C(=O)N3CCCC3)cc2)cc1	0	0	2	4	3	-2	/
CC(C)(C)c1ccc(C(=O)N2CCCCCC2=O)cc1	/	/	-2	-3	279*	2	9
Cc1noc(C)c1NC(=O)Nc1ccc2c(c1)C(=O)N([C@@H](C)CO)C[C@H](C)[C@@H](CN(C)C(=O)c1ccccc1)OCCCC[C@@H](C)O2	-2	0	-7	/	11	0	/
COc1ccccc1CN1C(=O)c2ccccc2[C@@]2(Cc3ccccc3N(CCN3CCOCC3)C2=O)[C@@H]1c1ccc(CO)cc1	5	0	-15	/	130*	-1	i
O=C1c2ccccc2[C@@]2(Cc3ccccc3N(CCN3CCOCC3)C2=O)[C@H](c2ccc(CO)cc2)N1Cc1ccccc1Cl	2	0	7	/	55	2	/
CN(C)CCCN1C(=O)[C@@]2(Cc3ccccc31)c1ccccc1C(=O)N(Cc1ccccc1Cl)[C@H]2c1ccc(CO)cc1	-3	0	/	/	202*	-1	i
COc1ccc2c3c(n(C)c2c1)[C@@H](CO)N(CC1CC1)CC31CCN(C(=O)Nc2ccc(F)cc2F)CC1	/	0	/	/	/	/	/
Cc1cccc(N2CCN(C(=O)Cn3nc(Cc4ccncc4)c4ccccc4c3=O)CC2)c1C	1	0	11	/	-13	-2	5
CN(C)C1=NC[C@H](Cc2ccccc2)N1CCCC1CCCC1	-5	0	-9	0	151*	-3	1
CN(C)C1=NC[C@H](Cc2ccccc2)N1CCCC1CCCCC1	-2	0	18	-5	-16	3	/
O=c1cc(CO)occ1OCc1ccccc1	/	/	-2	-1	484*	9	7
C[C@@H]1CN([C@H](C)CO)C(=O)c2cccc(NC(=O)Nc3ccccc3)c2O[C@H]1CN(C)C	12	0	-2	/	-6	-5	/
C[C@H]1CN([C@@H](C)CO)C(=O)c2cc(C#CCN(C)C)cnc2O[C@H]1CN(C)C(=O)NC1CCCCC1	1	0	0	/	3	2	/
O=C(/C=C/c1ccccc1)Nc1nc(-c2ccncc2)cs1	1	0	/	-14	594*	-1	-7
